Test results as given in patent US20250034136A1 (Nimbus Wadjet, Inc., priority 2023, published 2025).

Sequences of proteins named here, by UniProt entry; tags and fusion partners are left off. A change or cut given only in a name is not applied to a line headed by its entry.
UniProt Q14191: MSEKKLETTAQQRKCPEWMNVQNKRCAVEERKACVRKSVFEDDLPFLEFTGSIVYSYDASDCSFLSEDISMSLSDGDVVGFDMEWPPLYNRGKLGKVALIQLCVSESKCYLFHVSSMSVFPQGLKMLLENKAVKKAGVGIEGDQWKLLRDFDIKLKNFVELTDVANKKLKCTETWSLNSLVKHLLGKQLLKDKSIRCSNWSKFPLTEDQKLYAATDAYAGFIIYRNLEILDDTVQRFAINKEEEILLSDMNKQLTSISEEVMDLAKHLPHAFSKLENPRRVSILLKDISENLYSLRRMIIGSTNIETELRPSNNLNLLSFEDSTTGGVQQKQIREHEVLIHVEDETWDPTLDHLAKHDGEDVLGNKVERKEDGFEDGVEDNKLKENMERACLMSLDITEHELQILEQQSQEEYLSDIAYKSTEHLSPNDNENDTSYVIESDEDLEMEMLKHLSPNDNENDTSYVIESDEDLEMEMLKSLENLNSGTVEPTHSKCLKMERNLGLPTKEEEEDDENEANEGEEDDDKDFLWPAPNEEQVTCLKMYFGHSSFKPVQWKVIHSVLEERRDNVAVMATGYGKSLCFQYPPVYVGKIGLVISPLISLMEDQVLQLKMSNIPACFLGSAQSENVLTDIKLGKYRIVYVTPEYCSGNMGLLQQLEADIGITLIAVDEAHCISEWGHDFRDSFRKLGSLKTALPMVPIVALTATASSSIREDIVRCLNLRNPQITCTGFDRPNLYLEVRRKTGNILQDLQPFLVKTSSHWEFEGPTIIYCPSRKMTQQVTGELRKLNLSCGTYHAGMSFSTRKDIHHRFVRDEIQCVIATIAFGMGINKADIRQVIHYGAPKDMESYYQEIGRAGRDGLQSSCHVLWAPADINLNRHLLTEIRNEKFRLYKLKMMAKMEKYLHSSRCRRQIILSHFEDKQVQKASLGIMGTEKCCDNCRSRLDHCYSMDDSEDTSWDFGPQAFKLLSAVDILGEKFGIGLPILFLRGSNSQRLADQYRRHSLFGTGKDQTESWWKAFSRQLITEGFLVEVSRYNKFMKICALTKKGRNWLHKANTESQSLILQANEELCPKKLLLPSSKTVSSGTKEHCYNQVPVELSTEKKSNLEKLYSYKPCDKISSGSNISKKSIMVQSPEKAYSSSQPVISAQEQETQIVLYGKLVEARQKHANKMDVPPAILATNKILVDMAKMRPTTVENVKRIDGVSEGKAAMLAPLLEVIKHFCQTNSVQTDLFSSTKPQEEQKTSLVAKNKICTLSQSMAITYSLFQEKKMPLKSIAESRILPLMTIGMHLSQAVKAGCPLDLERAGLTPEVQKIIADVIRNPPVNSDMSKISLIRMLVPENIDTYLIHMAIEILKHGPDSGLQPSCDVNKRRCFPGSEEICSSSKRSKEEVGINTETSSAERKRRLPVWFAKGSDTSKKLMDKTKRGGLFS

Molecular target: WRN (BV08), human Werner helicase (Uniprot Q14191, amino acids 517-1235 with L1074F point mutation) (Homo sapiens (Human), UniProt Q14191, L1074F)
Assay: WRN (BV08) ADP-Glo assay
Format: biochemical
Conditions: class symbols A-E, read-out: ADP-Glo_hWRN_IC50
Procedure: Bovine skin gelatin (BSG), dimethyl sulfoxide (DMSO), Pluronic F-127 and tris(2-carboxyethyl)phosphine hydrochloride solution (TCEP) were purchased from Sigma-Aldrich (St. Louis, MO) at the highest level of purity possible. […] DNA strands were annealed by heating to 95° C. for 5 minutes followed by slow cooling to room temperature. Compounds in 100% DMSO (0.1 μl) were spotted into a 384-well white polystyrene Optiplate-384 (Perkin Elmer; Waltham, MA) assay plate using a LabCyte Echo 550 (Agilent; Santa Clara, CA). DMSO (0.1 μl) was added to columns 12, rows A-H and column 24, rows I-P for the maximum signal control. […] Compounds/DMSO were preincubated for 15 minutes at 25° C. with 5 μl 2×WRN (BV08), prepared as described below, in assay buffer containing 20 mM Bicine (pH=7.5), 1 mM MgCl2, 10 mM KCl, 0.1% Pluronic F-127, 0.005% BSG, 1 mM TCEP. The reaction was initiated by the addition of 5 μl 2× substrate mixture in assay buffer and incubated for 60 minutes at 25° C. […] The reaction was stopped by the addition of the ADP-Glo Kit components (Promega; Madison, WI) as directed and the relative luminescence units (RLU) were read on an Envision 2104 (Perkin Elmer; Waltham, MA). % inhibition calculation:
[formula] • Where RLU=relative luminescence units, sample=signal in sample well, and MIN and MAX are the respective minimum and maximum signal controls. […]

Structure (SMILES) | IC50
CCc1c(N2CCN(C(=O)c3ncnc(C)c3O)[C@@H]3CC[C@H]32)c(=O)c2nc(N(C)C)cnc2n1CC(=O)Nc1ccc(C(F)(F)F)cc1Cl (single isomer, unassigned) [I-39, N-(2-chloro-4-(trifluoromethyl)phenyl)-2-(2-(dimethylamino)-6-ethyl-7-(−5-(5-hydroxy-6-methylpyrimidine-4-carbonyl)-2,5-diazabicyclo[4.2.0]octan-2-yl)-8-oxopyrido[2,3-b]pyrazin-5(8H)-yl)acetamide] | 50 to 100 nM
[2H]C([2H])([2H])N(c1cnc2c(n1)c(=O)c(N1CCN(C(=O)c3ncnc(C)c3O)[C@H]3CC[C@@H]31)c(CC)n2CC(=O)Nc1ccc(C(F)(F)F)cc1Cl)C([2H])([2H])[2H] [I-101, 2-(2-(bis(methyl-d3)amino)-6-ethyl-7-((1S,6S)-5-(5-hydroxy-6-methylpyrimidine-4-carbonyl)-2,5-diazabicyclo[4.2.0]octan-2-yl)-8-oxopyrido[2,3-b]pyrazin-5(8H)-yl)-N-(2-chloro-4-(trifluoromethyl)phenyl)acetamide] | 5 to 50 nM
